Protein sequences, listed by entry. Tags and fused reporters are not part of them.
UniProt Q6RI86, whole entry, looked up: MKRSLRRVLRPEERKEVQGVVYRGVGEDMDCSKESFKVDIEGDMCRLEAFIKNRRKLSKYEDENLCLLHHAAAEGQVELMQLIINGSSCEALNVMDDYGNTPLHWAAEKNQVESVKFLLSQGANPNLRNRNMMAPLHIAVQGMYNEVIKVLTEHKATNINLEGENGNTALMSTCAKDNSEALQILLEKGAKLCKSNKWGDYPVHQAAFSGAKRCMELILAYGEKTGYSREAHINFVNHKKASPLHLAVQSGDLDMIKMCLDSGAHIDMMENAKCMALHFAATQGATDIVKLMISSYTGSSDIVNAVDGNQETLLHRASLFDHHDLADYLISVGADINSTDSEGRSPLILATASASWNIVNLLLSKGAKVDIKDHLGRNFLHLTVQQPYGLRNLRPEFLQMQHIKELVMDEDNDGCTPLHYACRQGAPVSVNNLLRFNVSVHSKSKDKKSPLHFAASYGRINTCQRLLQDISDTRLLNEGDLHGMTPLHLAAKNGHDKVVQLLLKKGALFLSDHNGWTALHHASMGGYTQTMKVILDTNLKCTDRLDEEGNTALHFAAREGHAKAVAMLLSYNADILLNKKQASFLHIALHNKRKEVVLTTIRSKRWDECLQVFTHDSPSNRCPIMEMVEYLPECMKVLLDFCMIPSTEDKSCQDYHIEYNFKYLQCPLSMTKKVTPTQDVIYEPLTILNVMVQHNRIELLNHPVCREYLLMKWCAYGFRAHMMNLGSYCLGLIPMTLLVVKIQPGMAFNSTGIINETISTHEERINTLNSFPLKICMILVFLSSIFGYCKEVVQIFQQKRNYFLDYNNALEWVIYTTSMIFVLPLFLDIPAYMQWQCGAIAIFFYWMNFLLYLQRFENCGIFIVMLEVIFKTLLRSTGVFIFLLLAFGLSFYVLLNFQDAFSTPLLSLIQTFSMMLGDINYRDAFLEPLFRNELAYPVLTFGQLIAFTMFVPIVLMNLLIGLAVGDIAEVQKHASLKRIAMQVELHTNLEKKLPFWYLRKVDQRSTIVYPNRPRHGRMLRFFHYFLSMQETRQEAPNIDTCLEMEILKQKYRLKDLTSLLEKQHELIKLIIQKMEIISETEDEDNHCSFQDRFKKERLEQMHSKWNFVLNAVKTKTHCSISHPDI

In ChEMBL document CHEMBL1155439, “Transient receptor potential ankyrin 1 (TRPA1) channel as emerging target for novel analgesics and anti-inflammatory agents” (J Med Chem, 2010):

How the values were obtained:
[1] = molecular target: Transient receptor potential cation channel subfamily A member 1 (Rattus norvegicus) (UniProt Q6RI86); assay: Agonist activity at TRPA1 channel in rat DRG neurons assessed as increase in intracellular calcium influx relative to allyl isothiocyanate
[2] = molecular target: Transient receptor potential cation channel subfamily A member 1 (Rattus norvegicus) (UniProt Q6RI86); assay: Agonist activity at TRPA1 channel in rat DRG neurons assessed as increase in intracellular calcium influx relative to URB597

| Structure (SMILES) | Emax [1] | Emax [2] |
| --- | --- | --- |
| COc1ccc(C(=O)NC(Sc2ccc(Cl)cc2)C(Cl)(Cl)Cl)cc1 (centres undefined) | 35% | – |
| Cc1ccc(C(=O)NC(Sc2ccc([N+](=O)[O-])cc2)C(Cl)(Cl)Cl)cc1 (centres undefined) | 84% | 91% |
| O=C(NC(Sc1ccc(Cl)cc1)C(Cl)(Cl)Cl)c1ccccc1 (centres undefined) | 50% | – |
